Test results from article PMC8513079 (Molecules, 2021).

Chains of the proteins cited; added tags and fusions are not shown.
UniProt P41145, whole entry: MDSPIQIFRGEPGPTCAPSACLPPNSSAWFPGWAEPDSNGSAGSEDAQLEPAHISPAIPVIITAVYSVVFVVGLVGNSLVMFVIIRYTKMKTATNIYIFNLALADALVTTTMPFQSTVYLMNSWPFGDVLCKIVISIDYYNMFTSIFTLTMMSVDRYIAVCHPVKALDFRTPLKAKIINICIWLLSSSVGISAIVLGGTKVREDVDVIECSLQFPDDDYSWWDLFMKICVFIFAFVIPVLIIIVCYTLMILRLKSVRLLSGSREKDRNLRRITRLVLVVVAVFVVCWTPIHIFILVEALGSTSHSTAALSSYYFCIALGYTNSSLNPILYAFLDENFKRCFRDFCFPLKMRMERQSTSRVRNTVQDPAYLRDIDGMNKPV

Target: KOR (Halotag-KOR) in HEK293 cells (Homo sapiens, UniProt P41145)
Test: cADDis cAMP assay, KOR
Type: cell-based

Structure (SMILES): CN1CC[C@]23Cc4nc5ccccc5cc4C[C@@]2(O)[C@H]1Cc1ccc(O)cc13
- Emax, cAMP assay, KOR (Table 1): 102.5 ± 9.5%
- pEC50, cAMP assay, KOR (Table 1): 6.5 ± 0.2 M
- effect through G-protein-mediated pathway (cAMP), KOR, in words (cADDis cAMP assay, HEK293 Halotag-KOR): full agonistic effects on both MOR and KOR
